This note sets out measurements from ChEMBL document CHEMBL3585322, “Synthesis, enantiomeric separation and docking studies of spiropiperidine analogues as ligands of the nociceptin/orphanin FQ receptor” (2014).

By UniProt entry, the sequences of proteins in these tests, tags left out. Where a name states a change or a piece, a line headed by the entry shows the natural chain unless it says otherwise.
UniProt P41146: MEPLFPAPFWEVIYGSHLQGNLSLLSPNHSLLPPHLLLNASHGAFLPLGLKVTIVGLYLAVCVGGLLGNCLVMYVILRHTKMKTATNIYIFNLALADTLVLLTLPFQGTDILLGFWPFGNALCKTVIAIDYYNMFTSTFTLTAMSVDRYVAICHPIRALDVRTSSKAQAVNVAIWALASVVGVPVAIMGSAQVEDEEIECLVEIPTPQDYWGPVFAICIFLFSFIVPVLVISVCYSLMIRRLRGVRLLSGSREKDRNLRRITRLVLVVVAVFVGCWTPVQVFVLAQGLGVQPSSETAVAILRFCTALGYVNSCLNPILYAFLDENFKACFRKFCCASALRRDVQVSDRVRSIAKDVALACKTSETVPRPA

Activity calls are given as the source filed them. No cut-off for these calls is given here.

Assay [1] concerns the target Nociceptin receptor (Homo sapiens) (UniProt P41146). As to the kind of experiment: Antagonist activity at human recombinant NOP receptor expressed in CHO cells co-expressing C-terminally modifed Gaqi5 protein assessed as inhibition of agonist response by Fluo-4AM dye based calcium mobilization assay.
Assay [2] shares this target. As to the kind of experiment: Agonist activity at human recombinant NOP receptor expressed in CHO cells co-expressing C-terminally modifed Gaqi5 protein by Fluo-4AM dye based calcium mobilization assay.
Assay [3] has the same target. Nature of the assay: Intrinsic activity at human recombinant NOP receptor expressed in CHO cells co-expressing C-terminally modifed Gaqi5 protein by Fluo-4AM dye based calcium mobilization assay. (In general: Calcium assays in cells follow changes in intracellular calcium, usually with a dye or a luminescent sensor.)
Assay [4] has the same target. Nature of the assay: Agonist activity at human recombinant NOP receptor expressed in CHO cells co-expressing C-terminally modifed Gaqi5 protein at EC80 level in presence of SB-612111 by Fluo-4AM dye based calcium mobilization assay.
Assay [5] has the same target. Nature of the assay: Agonist activity at human recombinant NOP receptor expressed in CHO cells co-expressing C-terminally modifed Gaqi5 protein up to 10 uM by Fluo-4AM dye based calcium mobilization assay.
Assay [6] has the same target. As to the kind of experiment: Antagonist activity at human recombinant NOP receptor expressed in CHO cells co-expressing C-terminally modifed Gaqi5 protein assessed as inhibition of agonist response up to 10 uM by Fluo-4AM dye based calcium mobilization assay.

In the case of `O=C1NCN(c2ccccc2)C12CCN(C1CC3(CCCCC3)Oc3ccccc31)CC2` (stereo not given), the pKb in assay [1] was below 6. The pEC50 entry in assay [2] is “inactive”. Turning to `O=C1NCN(c2ccccc2)C12CCN(C1CCOc3ccccc31)CC2` (stereo not given), the Intrinsic activity in assay [3] turned out to be 1.02. Take `O=C1NCN(c2ccccc2)C12CCN(C1CCOc3cccc(F)c31)CC2` (stereo not given): the Intrinsic activity in assay [3] was determined as 1.

Turning to `O=C1NCN(c2ccccc2)C12CCN([C@@H]1CCOc3ccccc31)CC2`, the outcome in assay [4] was inactive. The Intrinsic activity in assay [3] was found to be 0.98.

Consider `O=C1NCN(c2ccccc2)C12CCN(C1CC3(CCSCC3)Oc3ccccc31)CC2` (stereo not given), for which the pEC50 result in assay [2] is “inactive”. For the compound `CS(=O)(=O)N1CCC2(CC1)CC(N1CCC3(CC1)C(=O)NCN3c1ccccc1)c1ccccc1O2` (stereo not given), the pKb in assay [1] is below 6. For the same compound, the pEC50 entry in assay [2] is “inactive”.

For the compound `CN1CCC2(CC1)CC(N1CCC3(CC1)C(=O)NCN3c1ccccc1)c1ccccc1O2` (stereo not given), the outcome in assay [5] was inactive. Also, the inhibition entry in assay [6] is “inactive”. Turning to `O=C1NCN(c2ccccc2)C12CCN(CC1COc3ccccc3O1)CC2` (stereo not given), the Intrinsic activity in assay [3] came to 0.81.

For the compound `O=C1NCN(c2ccccc2)C12CCN(C1CC3(CCCC3)Oc3ccccc31)CC2` (stereo not given), the pEC50 result in assay [2] was “inactive”. For `CC(=O)N1CCC2(CC1)CC(N1CCC3(CC1)C(=O)NCN3c1ccccc1)c1ccccc1O2` (stereo not given), the pEC50 result in assay [2] is “inactive”. As to `CCN1CCC2(CC1)CC(N1CCC3(CC1)C(=O)NCN3c1ccccc1)c1ccccc1O2` (stereo not given), the result in assay [5] was inactive. The inhibition entry in assay [6] was “inactive”. `O=C1NCN(c2ccccc2)C12CCN([C@H]1CC3(CCNCC3)Oc3ccccc31)CC2`: the outcome in assay [5] was inactive. Further, in assay [6], the inhibition entry was “inactive”.

`O=C1NCN(c2ccccc2)C12CCN([C@H]1CCOc3ccccc31)CC2`: the outcome in assay [4] was inactive. For the same compound, the Intrinsic activity in assay [3] came to 0.95. Take `CC1(C)CC(N2CCC3(CC2)C(=O)NCN3c2ccccc2)c2ccccc2O1` (stereo not given): the pEC50 result in assay [2] was “inactive”. On to `O=C1NCN(c2ccccc2)C12CCN(C1CC3(CCOCC3)Oc3ccccc31)CC2` (stereo not given), for which the pEC50 result in assay [2] is “inactive”. Same read-out and setting: next, `CC1(C)COc2ccccc2C1N1CCC2(CC1)C(=O)NCN2c1ccccc1` (stereo not given): “inactive”; `O=C1NCN(c2ccccc2)C12CCN([C@H]1C[C@@H](c3ccccc3)Oc3ccccc31)CC2`: “inactive”; `O=C1NCN(c2ccccc2)C12CCN(C1CC3(CCCCCC3)Oc3ccccc31)CC2` (stereo not given): “inactive”.

Broadly, the pKb is the Kb on a negative log10 scale, so that one unit is a factor of ten.
